Reference: ChEMBL document CHEMBL4376826, “Isolation, Structural Identification, Synthesis, and Pharmacological Profiling of 1,2-trans-Dihydro-1,2-diol Metabolites of the Utrophin Modulator Ezutromid” (J Med Chem, 2020)

Protein sequences, listed by entry. Tags and fused reporters are not part of them.
UniProt P00185, whole entry: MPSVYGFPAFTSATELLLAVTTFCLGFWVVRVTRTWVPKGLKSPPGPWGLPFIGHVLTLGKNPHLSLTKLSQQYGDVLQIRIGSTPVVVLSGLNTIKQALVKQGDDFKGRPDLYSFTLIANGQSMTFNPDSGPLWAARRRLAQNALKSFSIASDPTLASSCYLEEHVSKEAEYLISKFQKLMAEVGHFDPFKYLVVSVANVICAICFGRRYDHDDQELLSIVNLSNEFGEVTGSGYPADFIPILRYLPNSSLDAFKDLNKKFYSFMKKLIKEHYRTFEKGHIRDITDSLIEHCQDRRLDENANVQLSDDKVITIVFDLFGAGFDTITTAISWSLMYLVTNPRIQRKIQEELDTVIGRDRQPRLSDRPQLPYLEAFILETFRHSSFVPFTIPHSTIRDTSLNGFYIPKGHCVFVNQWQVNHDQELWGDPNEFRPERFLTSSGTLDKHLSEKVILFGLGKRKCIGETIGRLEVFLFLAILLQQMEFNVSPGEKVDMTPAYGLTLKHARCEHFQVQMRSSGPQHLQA
UniProt P05177, whole entry: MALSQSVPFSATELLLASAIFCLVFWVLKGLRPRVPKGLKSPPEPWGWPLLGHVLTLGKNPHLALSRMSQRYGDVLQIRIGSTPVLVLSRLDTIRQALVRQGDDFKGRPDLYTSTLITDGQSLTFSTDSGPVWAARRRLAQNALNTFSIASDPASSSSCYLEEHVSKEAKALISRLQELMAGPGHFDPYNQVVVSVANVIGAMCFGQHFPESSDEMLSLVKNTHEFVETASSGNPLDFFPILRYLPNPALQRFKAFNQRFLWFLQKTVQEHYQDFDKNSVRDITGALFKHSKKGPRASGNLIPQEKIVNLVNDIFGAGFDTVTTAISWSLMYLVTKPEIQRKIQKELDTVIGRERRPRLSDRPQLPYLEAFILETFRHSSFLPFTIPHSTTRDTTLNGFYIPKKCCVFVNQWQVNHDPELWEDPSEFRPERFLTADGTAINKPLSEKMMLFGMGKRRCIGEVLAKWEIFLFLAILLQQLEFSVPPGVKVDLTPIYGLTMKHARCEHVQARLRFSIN

Tests used:
Cytochrome P450 1A1 = Cytochrome P450 1A1 (Rattus norvegicus, UniProt P00185); assay: Induction of CYP1A1 in rat hepatocytes at 0.1 to 10 uM incubated for 48 hrs; type: ADME, cell-based
Cytochrome P450 1A2 [1] = target: T1, Cytochrome P450 1A2 (Rattus norvegicus, UniProt P04799); assay: Induction of CYP1A2 in rat hepatocytes at 0.1 to 10 uM incubated for 48 hrs; type: ADME, cell-based
T1 sequence (P04799 whole entry): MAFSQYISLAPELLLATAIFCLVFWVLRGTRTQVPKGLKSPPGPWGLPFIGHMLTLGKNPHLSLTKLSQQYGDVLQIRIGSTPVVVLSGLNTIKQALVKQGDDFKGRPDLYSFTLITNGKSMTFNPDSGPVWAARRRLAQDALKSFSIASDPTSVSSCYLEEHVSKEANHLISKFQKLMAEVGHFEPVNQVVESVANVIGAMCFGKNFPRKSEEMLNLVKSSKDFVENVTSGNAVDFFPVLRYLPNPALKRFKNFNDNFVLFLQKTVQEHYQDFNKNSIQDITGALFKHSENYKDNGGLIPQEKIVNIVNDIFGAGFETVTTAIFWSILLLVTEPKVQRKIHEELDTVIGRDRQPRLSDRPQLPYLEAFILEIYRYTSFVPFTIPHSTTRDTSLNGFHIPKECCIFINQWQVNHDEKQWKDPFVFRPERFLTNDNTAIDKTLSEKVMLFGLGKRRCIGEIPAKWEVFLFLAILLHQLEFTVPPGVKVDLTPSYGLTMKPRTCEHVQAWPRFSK

Cytochrome P450 1A2 [2] = target: Cytochrome P450 1A2 (Homo sapiens, UniProt P05177); assay: Induction of CYP1A2 in human hepatocytes at 0.1 to 10 uM incubated for 48 hrs; type: ADME, cell-based
CYP1A1/2 [3] = assay: Induction of CYP1A1/2 enzymes in rat assessed as increase in EROD enzyme activity per milligram of protein at 2000 mg/kg/day, po for 28 days relative to control; type: ADME, organism-based; settings: in vivo, read-out: FC
CYP1A1/2 [4] = assay: Induction of CYP1A1/2 enzymes in rat assessed as increase in EROD enzyme activity per gram of liver at 2000 mg/kg/day, po for 28 days relative to control; type: ADME, organism-based; settings: read-out: FC
CYP1A1/2 [5] = assay: Induction of CYP1A1/2 enzymes in rat assessed as increase in EROD enzyme activity per nanomole of P450 at 2000 mg/kg/day, po for 28 days relative to control; type: ADME, organism-based; settings: in vivo, read-out: FC
CYP2B [6] = assay: Induction of CYP2B enzymes in minipig assessed as increase in PROD enzyme activity at 500 mg/kg/day, po for 39 weeks relative to control; type: ADME, organism-based, Sus scrofa domesticus; settings: pig, in vivo, read-out: FC
CYP1A1/2 [7] = assay: Induction of CYP1A1/2 enzymes in female minipig assessed as increase in EROD enzyme activity at 500 mg/kg/day, po for 39 weeks relative to control; type: ADME, organism-based, Sus scrofa domesticus; settings: pig, in vivo, read-out: FC
CYP2B [8] = assay: Induction of CYP2B enzymes in female minipig assessed as increase in PROD enzyme activity at 500 mg/kg/day, po for 39 weeks relative to control; type: ADME, organism-based, Sus scrofa domesticus; settings: pig, in vivo, read-out: FC

- Activity (Cytochrome P450 1A1): Not Active
- Activity (Cytochrome P450 1A2 [1]): Not Active
- Activity (Cytochrome P450 1A2 [2]): Not Active
- fold induction at 672 h (CYP1A1/2 [3]): 17 to 18
- fold induction at 672 h (CYP1A1/2 [4]): 21 to 22
- fold induction at 672 h (CYP1A1/2 [5]): 13 to 18
- fold induction at 6552 h (CYP2B [6]): 2
- fold induction at 6552 h (CYP1A1/2 [7]): 4
- fold induction at 6552 h (CYP2B [8]): 3.8
SMILES: CCS(=O)(=O)c1ccc2oc(-c3ccc4ccccc4c3)nc2c1 [EZUTROMID]
